# Ab-91 heavy chain CDR variants: yeast mating affinities

Target peptide (SARS-CoV-2 spike, HR2 region): PDVDLGDISGINAS

Parent scFv Ab-91: VL joined to VH by a (GGGGS)3 linker. Changes lie in the heavy chain CDRs alone.
VL: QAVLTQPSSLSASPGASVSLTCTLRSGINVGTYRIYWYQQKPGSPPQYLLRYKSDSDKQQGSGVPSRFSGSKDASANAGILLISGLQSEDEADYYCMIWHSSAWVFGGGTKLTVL
VH: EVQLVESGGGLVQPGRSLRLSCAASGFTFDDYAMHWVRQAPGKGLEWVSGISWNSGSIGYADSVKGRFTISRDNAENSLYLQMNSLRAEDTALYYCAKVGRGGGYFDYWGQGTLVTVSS

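The starting antibody came from a phage panning campaign against this peptide. Variants in AAYL51 differ from the parent at up to three CDR positions; double and triple changes were sampled at random. In AlphaSeq, yeast of one mating type display the scFv and yeast of the other type display the target. The frequency of each diploid, read from paired DNA barcodes, reflects how well the two displayed proteins bind. The ratio of observed to expected reads was calibrated, replicate by replicate, on BCL2-family standards whose Kd was known from biolayer interferometry. There are three technical replicates.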

Variants are written as CDR1, CDR2 and CDR3 of the heavy chain (limits as in the source). Parent: GFTFDDYAMH, GISWNSGSIGYADSVK, VGRGGGYFDY. All variants listed here change K65 of the VH, counted from its first residue. Values are apparent Kd, the geometric mean of the replicates that gave a signal; lower means stronger binding. A pair that was not seen in any replicate is written "nd"; this usually means weak binding, but a binder can also be missed.

For GFTFDDYLMH, GISWNSGSIGGADSVS, VGRGGGYFDY, the assay gave 76 µM (1 of 3 replicates).
For GGTFDDYAMH, GISWNSGSIGYADSVP, VGRGGGYFDY, the assay gave 60 µM (1 of 3 replicates).
For GFTFDDYAMH, GISWQSGSIGYAFSVF, VGRGGGYFDY, the assay gave 22 µM (1 of 3 replicates).
For GFTPDDYAMH, GISWNSGSIGYADSVW, VGRGGMYFDY, the assay gave nd (0 of 3 replicates).
For FFTFDDYAMH, GISWNSGSIGAADSVG, VGRGGGYFDY, the assay gave 23 µM (1 of 3 replicates).
For GFTFDDYAMH, GISCNSGSIGYADSVE, VGRGGGYFDH, the assay gave nd (0 of 3 replicates).
For GFTFDDYAMH, GISWNQGSIGYADSVF, VGRGGKYFDY, the assay gave nd (0 of 3 replicates).
For QFTFDDYAMH, GISWNVGSIGYADSVA, VGRGGGYFDY, the assay gave 99 µM (1 of 3 replicates).
For GFTFDDYAMH, GHSWNSGSIGYAPSVH, VGRGGGYFDY, the assay gave nd (0 of 3 replicates).
For GFTFDDYYMH, GISWNSVSIGYADSVM, VGRGGGYFDY, the assay gave 29 µM (2 of 3 replicates).
For NFTFDDYAMH, GGSWNSGSIGYADSVY, VGRGGGYFDY, the assay gave 26 µM (1 of 3 replicates).
For GFTFDDYAMH, GISWNSGSIGYADSVH, VGRGEGYPDY, the assay gave 12 µM (1 of 3 replicates).
For GFTFDDYAMH, TISWNSGSIGYARSVS, VGRGGGYFDY, the assay gave 31 µM (1 of 3 replicates).
For GFTFDDYAMH, GISWNSGSIGYARSVT, VGRGGGYFEY, the assay gave nd (0 of 3 replicates).
For GFTFDDYWMH, GISWNSGSQGYADSVS, VGRGGGYFDY, the assay gave nd (0 of 3 replicates).
For GFTFDDYAMH, GISWNSGQIGYADSVG, VGRGWGYFDY, the assay gave nd (0 of 3 replicates).
For GFTFDDEAMH, GISWNSGSIGYNDSVS, VGRGGGYFDY, the assay gave 100 µM (1 of 3 replicates).
For GFTFDDYAMH, GDSWNSGSIGYADSVP, EGRGGGYFDY, the assay gave 1.3 mM (1 of 3 replicates).
For GFTFDDYAMH, GIRWNSGSIGQADSVW, VGRGGGYFDY, the assay gave 29 µM (2 of 3 replicates).
For GFTFDDYAMH, GISWNSGSIGCEDSVT, VGRGGGYFDY, the assay gave nd (0 of 3 replicates).
For GFTFDDYAMH, YISWNSGSIGYADSVQ, VGRGGGYFKY, the assay gave nd (0 of 3 replicates).
For GFTFDDYAMY, GISWNSGSIGYADSVY, VGRGGGYFDY, the assay gave nd (0 of 3 replicates).
For GFTFDDYAMH, GWSWASGSIGYADSVH, VGRGGGYFDY, the assay gave nd (0 of 3 replicates).
For GFTFDDYAMH, GISWNSGSIIYADSVY, VGRGGFYFDY, the assay gave nd (0 of 3 replicates).
For GFTFDDYAMH, GISWNSHSIGYADSVQ, VGRGGEYFDY, the assay gave 29 nM (3 of 3 replicates).
For GFTFDDYAMH, GISWNSGSIGYADSVS, VGRGSGYFDY, the assay gave 160 µM (1 of 3 replicates).
For GFTFDDYAMH, GISWNSGSIGYADSVG, VGYGGGYFDY, the assay gave 2.6 µM (1 of 3 replicates).
For GFHFDDYAMH, GISWNSGSIGYADSVF, QGRGGGYFDY, the assay gave nd (0 of 3 replicates).
For GFTFDDYAMH, GISWNSGSIGYAMSVA, VGRCGGYFDY, the assay gave nd (0 of 3 replicates).
For GFTFDDYAMH, GISWNSGSIGYPDSVF, VGRGGGEFDY, the assay gave 23 µM (2 of 3 replicates).
For GFTFDDYAMH, GISWNSGSIGYTDSVC, VGRGGGYDDY, the assay gave 530 µM (3 of 3 replicates).
For GFTFDDYAMH, GISWNSGSIGYADSVN, VGRGGGYFDY, the assay gave 14 µM (2 of 3 replicates).
For HFTFDDYAMH, GISWNSGSIGYADSVQ, VGRGGGCFDY, the assay gave 210 µM (3 of 3 replicates).
For GFTFDDYAMH, GISWNSGSIGYADSVD, DGRGGGYVDY, the assay gave nd (0 of 3 replicates).
For GFTFDDYAMH, GITWNSGSNGYADSVF, VGRGGGYFDY, the assay gave 71 µM (2 of 3 replicates).
For GFTFDDYAMH, GISWNSGSIGYFDSVF, VGRGGGYFDY, the assay gave 6.3 µM (1 of 3 replicates).
For GFTFDDYAMH, GIEWNSGSIGYADSVQ, VGRGGQYFDY, the assay gave 40 µM (1 of 3 replicates).
For GFFFDDYAMH, GISWNSGSIGYADSVE, VGRQGGYFDY, the assay gave 390 nM (3 of 3 replicates).
For GFTFDIYAMH, CISWNSGSIGYADSVN, VGRGGGYFDY, the assay gave 180 µM (3 of 3 replicates).
For GFTFDDYAMH, GISWNSGKIGYADSVQ, VGRGGAYFDY, the assay gave 770 µM (3 of 3 replicates).
For GFTFDDYAMH, GISWNSGGIGYADSVD, VGRGGGYFQY, the assay gave 420 nM (3 of 3 replicates).
For GFTFDDYAMH, GISWNSGSIGYAKSVE, VGRGGWYFDY, the assay gave nd (0 of 3 replicates).
For RFTFDDYAMH, GISWNSGSIGYADSVL, VGRGGGWFDY, the assay gave 6.1 µM (1 of 3 replicates).
For GFTFDDYAEH, GISWNSGSIGYADIVS, VGRGGGYFDY, the assay gave 110 µM (1 of 3 replicates).
For GFTFDDYAMH, GISWNSWSIGYADSVS, VSRGGGYFDY, the assay gave 51 µM (3 of 3 replicates).
For GFTFDDYAMH, GISWTSGSIYYADSVS, VGRGGGYFDY, the assay gave nd (0 of 3 replicates).
For GFTFDDYWMH, GISWNSGSIGYAVSVE, VGRGGGYFDY, the assay gave 21 µM (1 of 3 replicates).
For GFTFDDYAMH, GISWNSNSIGYDDSVS, VGRGGGYFDY, the assay gave nd (0 of 3 replicates).

From the list, the first 4 with no signal in any replicate:

| CDR-H1 | CDR-H2 | CDR-H3 | Kd | replicates with signal |
|---|---|---|---|---|
| GFTPDDYAMH | GISWNSGSIGYADSVW | VGRGGMYFDY | nd | 0 of 3 |
| GFTFDDYAMH | GISCNSGSIGYADSVE | VGRGGGYFDH | nd | 0 of 3 |
| GFTFDDYAMH | GISWNQGSIGYADSVF | VGRGGKYFDY | nd | 0 of 3 |
| GFTFDDYAMH | GHSWNSGSIGYAPSVH | VGRGGGYFDY | nd | 0 of 3 |

As a blank, each scFv also met three strains without target: over library AAYL51, 21% of these pairings were detected, typically at 34 µM and seldom below 1.8 µM.

Source: Engelhart et al. 2022 (doi:10.1038/s41597-022-01779-4), MIT Lincoln Laboratory and A-Alpha Bio; data file from the FLAb repository.